How the values were obtained:
mice [1] = details: blocking N/OFQ-induced bradycardia and hypotension; cited from earlier work
[2] = tested on: NOP receptor (mouse colon); details: cited from earlier work
[3] = tested on: NOP receptor (mouse vas deferens); details: cited from earlier work
NOP receptor [4] = details: cited from earlier work
NOP receptor [5] = details: cited from earlier work; remark: listed apart in the source
mice [6] = details: cited from earlier work
CHO cells = assay: DMR in wild type CHO cells; details: 1 μM, 37°C, pm ± sem, * p < 0.05 vs buffer (one-way ANOVA, Dunnett's)
mice [7] = details: cited from earlier work; remark: listed apart in the source

Compound: C[C@H](NC(=O)CNC(=O)[C@@H](NC(=O)[C@H](Cc1ccccc1)NC(=O)CNC(=O)CNC[C@@H](N)Cc1ccccc1)[C@@H](C)O)C(=O)N[C@@H](CCCNC(=N)N)C(=O)N[C@@H](CCCCN)C(=O)N[C@@H](CO)C(=O)N[C@@H](C)C(=O)N[C@@H](CCCNC(=N)N)C(=O)N[C@@H](CCCCN)C(N)=O
- NOP activity in cardiovascular system (mice [1]): pure antagonist
- NOP activity in mouse colon [2]: NOP full agonist
- NOP activity in mouse vas deferens [3]: NOP antagonist
- efficacy vs N/OFQ, NOP/G protein interaction (NOP receptor [4]): significantly lower efficacy than N/OFQ
- efficacy vs N/OFQ, GTPγS binding (NOP receptor [5]): significantly lower efficacy than N/OFQ
- NOP activity on locomotor activity (mice [6]): partial agonist
- DMR response, CHO (CHO cells): 24±2 pm
- NOP activity in tail withdrawal assay (mice [7]): full agonist

From publication PMC6117024, “NOP receptor pharmacological profile – A dynamic mass redistribution study” (PLoS ONE, 2018)
